Columns and labels:
Axl = Axl (Homo sapiens, UniProt P30530); assay: Phospho-AKT HTRF, HUVEC, Axl ABX-L, 8 pt; conditions: read-out: Phospho-AKT HTRF, HUVEC, Axl ABX-L, 8 pt, HUVEC cells, pAkt(Ser473) HTRF, Axl ABX-L stimulation
Protocol: [The source words this procedure for another target and reports this target under the same test.] (§1) Example 13: PAKT HTRF-HUVEC Assay
(§2) Seed HUVECs (10K cells/well) in EBM-2 complete media (EBM-2 basal medium plus EGM-2 BulletKit supplements) overnight at 37° C., 5% CO2 in Costar 96-well white clear-bottom plates. Remove culture media and starve cells for 3-4 hours in 50 μL/well EBM-2 basal medium. Perform serial dilution of compounds in DMSO from 2.5 mM in 4-fold dilutions, and then dilute 1:125 in EBM-2 basal media. Mix 50 μL/well 2× compounds with 50 μL/well HUVECs in duplicate in Costar 96-well white clear-bottom plates. Incubate plates for 1 hour at 37° C., 5% CO2. Cross-link anti-human MerTK antibody to Biotin-SP-conjugated anti-mouse IgG antibody (1:1) to give final concentrations of 5 μg/mL of anti-human MerTK-XL. Stimulate HUVECs with 25 μL/well 5× anti-human MerTK-XL to give final concentrations of 1 ug/mL for 10 minutes at 37° C., 5% CO2. Completely remove media and lyse HUVECs with 40 uL:WELL per well of Cisbio HTRF 1× lysis buffer. Performed pAkt(Ser473) HTRF assay in ProxiPlate-384 Plus, white 384-shallow well microplate according to the vendor protocol and read plates with a SpectralMax Paradigm plate reader. Enter the HTRF values into Athena (Rigel) for curve fitting, EC50 calculation, and database storage.

By UniProt entry, the sequences of proteins in these tests, tags left out. Residues count along the entry.
UniProt P30530, 26-894 limits assumed: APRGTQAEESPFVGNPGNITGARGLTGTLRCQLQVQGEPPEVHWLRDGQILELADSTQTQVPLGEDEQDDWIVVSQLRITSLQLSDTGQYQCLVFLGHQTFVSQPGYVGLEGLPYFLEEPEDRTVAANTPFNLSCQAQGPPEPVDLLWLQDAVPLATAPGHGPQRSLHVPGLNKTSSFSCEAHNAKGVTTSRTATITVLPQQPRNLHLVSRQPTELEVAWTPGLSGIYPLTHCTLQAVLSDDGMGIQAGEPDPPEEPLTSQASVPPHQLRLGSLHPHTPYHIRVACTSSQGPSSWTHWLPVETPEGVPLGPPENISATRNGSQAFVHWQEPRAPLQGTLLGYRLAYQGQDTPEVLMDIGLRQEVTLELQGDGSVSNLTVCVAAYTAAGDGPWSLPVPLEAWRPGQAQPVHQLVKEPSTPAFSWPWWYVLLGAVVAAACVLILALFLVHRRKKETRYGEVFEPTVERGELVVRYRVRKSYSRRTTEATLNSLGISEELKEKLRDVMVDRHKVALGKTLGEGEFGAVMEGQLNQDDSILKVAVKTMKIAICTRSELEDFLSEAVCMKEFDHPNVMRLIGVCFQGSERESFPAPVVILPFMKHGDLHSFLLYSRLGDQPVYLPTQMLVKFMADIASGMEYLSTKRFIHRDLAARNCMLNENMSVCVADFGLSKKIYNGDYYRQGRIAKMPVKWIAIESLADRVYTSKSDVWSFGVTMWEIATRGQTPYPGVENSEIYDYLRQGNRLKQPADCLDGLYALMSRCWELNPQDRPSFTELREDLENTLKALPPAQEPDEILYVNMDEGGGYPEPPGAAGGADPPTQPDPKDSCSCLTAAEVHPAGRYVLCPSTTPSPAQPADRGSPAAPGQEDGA
UniProt Q12866, 21-999 limits assumed: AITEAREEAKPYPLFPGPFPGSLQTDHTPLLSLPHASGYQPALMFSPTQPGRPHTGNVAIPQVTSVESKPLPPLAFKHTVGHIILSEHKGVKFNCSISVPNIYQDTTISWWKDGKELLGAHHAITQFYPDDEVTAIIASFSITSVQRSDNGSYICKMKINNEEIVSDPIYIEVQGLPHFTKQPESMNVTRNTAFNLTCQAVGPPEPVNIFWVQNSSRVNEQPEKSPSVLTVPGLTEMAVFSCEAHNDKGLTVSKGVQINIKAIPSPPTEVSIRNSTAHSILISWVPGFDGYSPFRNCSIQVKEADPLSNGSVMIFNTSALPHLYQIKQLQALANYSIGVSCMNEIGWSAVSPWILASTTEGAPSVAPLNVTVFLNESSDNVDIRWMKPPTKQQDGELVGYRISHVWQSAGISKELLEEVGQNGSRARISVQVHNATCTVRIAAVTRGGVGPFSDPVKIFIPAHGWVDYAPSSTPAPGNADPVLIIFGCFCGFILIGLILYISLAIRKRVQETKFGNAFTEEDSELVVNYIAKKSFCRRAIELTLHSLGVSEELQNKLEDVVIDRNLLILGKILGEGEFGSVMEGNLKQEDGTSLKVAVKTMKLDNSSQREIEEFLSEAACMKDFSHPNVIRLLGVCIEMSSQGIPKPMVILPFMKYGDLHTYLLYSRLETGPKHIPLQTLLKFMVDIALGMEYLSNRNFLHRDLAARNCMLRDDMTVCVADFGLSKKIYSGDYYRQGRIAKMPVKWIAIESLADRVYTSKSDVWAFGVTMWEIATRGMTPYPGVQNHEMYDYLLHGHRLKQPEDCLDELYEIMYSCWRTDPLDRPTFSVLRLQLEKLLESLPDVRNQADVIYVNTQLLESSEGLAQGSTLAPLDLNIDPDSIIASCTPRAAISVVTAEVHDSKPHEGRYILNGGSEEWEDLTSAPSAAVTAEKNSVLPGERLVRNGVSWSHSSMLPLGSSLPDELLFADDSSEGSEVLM

MerTK = MerTK (Homo sapiens, UniProt Q12866); assay: Phospho-AKT HTRF, HUVEC, Mer-XL, 8 pt (pAKT HTRF-HUVEC assay, anti-human MerTK-XL stimulation); conditions: read-out: Phospho-AKT HTRF, HUVEC, Mer-XL, 8 pt, HUVEC cells, pAkt(Ser473) HTRF, anti-human MerTK-XL stimulation 1 ug/mL 10 minutes
Protocol: as §1, §2

**Q.** With `COc1cc2c(Oc3ccc(NC(=O)c4nc(-c5ccccc5)c5c(n4)C4CCN5CC4)nc3)ccnc2cc1OCCCN1CCCCC1` as the compound, how does the EC50 (Axl) read?
**A.** 6.7 nM

**Q.** What about the EC50 (MerTK) of the same compound?
**A.** 4.6 nM

From patent US10851093B2, “Tyrosine kinase inhibitors” (Rigel Pharmaceuticals, Inc., priority 2018, dated 2020)
